The values below are quoted from earlier work in US11471428B2, “Method and pharmaceutical composition for treating depression” (ZHEJIANG UNIVERSITY, priority 2017, dated 2022).

The conditions of this data set: not told; cited from earlier work.

As to Ibogaine, the blood-brain barrier permeability result is “capable of crossing a blood-brain barrier or show at least certain level of blood-brain barrier permeability”.
